Values of other authors in paper PMC7617969, “Carboxylic Acid Bioisosteres Boost Nurr1 Agonist Selectivity” (Journal of medicinal chemistry, 2025).
Like-named read-outs stand apart in the source and are kept apart here.

The chains behind the UniProt entries cited, without tags or fusion partners. Residues count along the entry.
UniProt P43354, 360-595 limits assumed: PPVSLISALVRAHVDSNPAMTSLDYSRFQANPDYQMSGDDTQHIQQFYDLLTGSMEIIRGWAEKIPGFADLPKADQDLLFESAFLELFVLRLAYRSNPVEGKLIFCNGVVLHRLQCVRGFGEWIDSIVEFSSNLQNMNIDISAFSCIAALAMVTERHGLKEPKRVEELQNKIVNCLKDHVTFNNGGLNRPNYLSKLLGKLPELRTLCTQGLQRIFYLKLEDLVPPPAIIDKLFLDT

Molecular target: T1, Nurr1 (Homo sapiens, UniProt P43354)
T1 construct: expressed in transfected cells; host or cells: HEK293T
Details: cited from earlier work; for max. activation (Nurr1): Gal4-Nurr1 hybrid reporter gene assay; for efficacy_NR4A2: supplementary csv

| Structure (SMILES) | max. activation (Nurr1) (listed as 7 (vidofludimus)) | efficacy_NR4A2 [%] | max. activation (Nurr1) [fold] |
| --- | --- | --- | --- |
| COc1cccc(-c2ccc(NC(=O)C3=C(C(=O)O)CCC3)c(F)c2)c1 [compound 7, vidofludimus] | (0.4±0.2-μM) (3.1±0.4-fold) | 310 |  |
| [2H]C([2H])([2H])Oc1cccc(-c2ccc(NC(=O)C3=C(C(=O)O)CCC3)c(F)c2)c1 [compound 9] |  | 260 | 2.6±0.1 |
